## Measured affinities in a library of Ab-14 light chain variants

All variants were tested on one target, the spike HR2 peptide PDVDLGDISGINAS (SARS-CoV-2).

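Phage display of a naive human antibody library on the peptide gave the parent. In library AAYL50, one, two or three CDR residues were substituted; doubles and triples were drawn at random. In AlphaSeq, yeast of one mating type display the scFv and yeast of the other type display the target. Binding brings cells together so that they mate, and sequencing counts the barcode pairs among the diploids. The ratio of observed to expected reads was calibrated, replicate by replicate, on BCL2-family standards whose Kd was known from biolayer interferometry. Each pool was mated in three replicate cultures.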

Parent scFv Ab-14: VH joined to VL by a (GGGGS)3 linker. Changes lie in the light chain CDRs alone.
VH: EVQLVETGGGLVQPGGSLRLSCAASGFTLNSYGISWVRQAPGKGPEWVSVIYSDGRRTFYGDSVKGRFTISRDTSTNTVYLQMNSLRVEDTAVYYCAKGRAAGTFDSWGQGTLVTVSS
VL: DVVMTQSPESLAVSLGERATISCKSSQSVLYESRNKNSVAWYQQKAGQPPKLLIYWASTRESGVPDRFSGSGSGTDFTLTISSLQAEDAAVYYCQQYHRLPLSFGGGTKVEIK

Each variant is given by its three light chain CDRs, as the data file delimits them; those of the parent are KSSQSVLYESRNKNSVA, WASTRES, QQYHRLPLS.
Values are log10 of the apparent Kd in nM; lower means stronger binding.
A mean of the replicates is given; it leaves out those without a signal.
An entry "no signal" has no value in the source: the pair was not observed among the diploids in any replicate. This suggests poor binding but is not conclusive.

CDR-L1 | CDR-L2 | CDR-L3 | mean log10 Kd (nM) | seen in | control signals
KSSQSVLYESRNKNSRA | YASTRES | QRYHRLPLS | 4.20 | 2 of 3 | 3 of 9
KSSQSVLYESRFKNSVA | WASTRNS | QQYPRLPLS | 1.45 | 3 of 3 | 5 of 9
KSSQSVLYESRNKNSVA | WASFRWS | TQYHRLPLS | 3.58 | 3 of 3 | 1 of 9
KSSWSVLYEHRNKNSVA | WASTRES | QQYHSLPLS | 1.32 | 3 of 3 | 5 of 9
MGSQSVLYESRNKNSVA | WASTRES | QGYHRLPLS | 3.96 | 1 of 3 | 1 of 9
KSSISVLYESRNKNSDA | WASTRKS | QQYHRLPLS | 3.44 | 2 of 3 | 2 of 9
KSWQCVLYESRNKNSVA | WASTRES | QQYHRLALS | no signal | 0 of 3 | 0 of 9
KSSQSVPVESRNKNSVH | WASTRES | QQYHRLPLS | 4.11 | 2 of 3 | 7 of 9
KSSQDVLYESRNKNSVA | WASTRWS | QQYHRLPLP | 1.53 | 3 of 3 | 0 of 9
KSSQGVLYESRNKNSVA | WASTRWS | QQYHRLFLS | 2.15 | 3 of 3 | 1 of 9
KSSQQVLYESRNKNSVA | VASTRES | QQYHRLPTS | 5.59 | 3 of 3 | 6 of 9
KSSQSVLYESRNKNSAA | WANTRES | KQYHRLPLS | 4.72 | 1 of 3 | 4 of 9
KSCQIVLYESRNKNSVA | WASTRES | QQYHRLPLS | no signal | 0 of 3 | 1 of 9
KSGQCVLYESRNKNSVA | WASTRES | QQYHRLDLS | no signal | 0 of 3 | 0 of 9
KSSYSVLYESRNKNVEA | WASTRES | QQYHRLPLS | no signal | 0 of 3 | 1 of 9
KSSQSVLYESNNKNSVA | WASIRES | QQYHRDPLS | 0.31 | 3 of 3 | 2 of 9
KSSQSVLYESRSKNFKA | WASTRES | QQYHRLPLS | no signal | 0 of 3 | 1 of 9
KSSQSVLYESRNMFSVA | WASTRES | QQYQRLPLS | no signal | 0 of 3 | 0 of 9
KTSQSVLYESRNKNSVD | WASTRES | QQYHRLPLG | no signal | 0 of 3 | 1 of 9
KSSQMVLYESRNKNSVR | VASTRES | QQYHRLPLS | no signal | 0 of 3 | 1 of 9
KSSQSVLYESRNKVSVA | WASTAES | QQYYRLPLS | no signal | 0 of 3 | 0 of 9
KSSQSVRYESRNKNSVA | WESTRES | QQYHSLPLS | 2.23 | 3 of 3 | 0 of 9
KSSQSQLYESRNKNSVA | WRSPRES | QQYHRLPLS | 5.61 | 3 of 3 | 8 of 9
KSSRSVLYESRNKNSVA | WASTRES | QQYHALPWS | no signal | 0 of 3 | 4 of 9
KSSQSVLYESRNKNSLA | WASPRES | QWYHRLPLS | 3.63 | 1 of 3 | 0 of 9
KSYQSVLYESRNKNSVW | WASTRES | QQYHRLPLN | 4.62 | 1 of 3 | 0 of 9
KSSQSVLYYSRNKNSVA | WASTRES | PQYHRLPLS | 3.71 | 1 of 3 | 1 of 9
KSSQSVLYESRNKNSVA | WASTRES | QQLHMLPLS | 2.17 | 3 of 3 | 3 of 9
KSCDSVLYESRNGNSVA | WASTRES | QQYHRLPLS | 2.04 | 3 of 3 | 0 of 9
KSSMSVQYESRNKNSVA | WASTRES | QQYHRLNLS | 0.90 | 3 of 3 | 0 of 9
KCSQSVLYESWNKNDVA | WASTRES | QQYHRLPLS | 4.52 | 2 of 3 | 0 of 9
KSSQSVLYESRNKNQVA | WASTRES | TQYHRLPLE | no signal | 0 of 3 | 1 of 9
KSSQSVLYESLNKNSVA | WLSTRES | IQYHRLPLS | 3.17 | 1 of 3 | 4 of 9
KSMQSVLYESRNKNSVA | WQMTRES | QQYHRLPLS | 4.91 | 1 of 3 | 2 of 9
KSSQSVLVESRPRNSVA | WASTRES | QQYHRLPLS | 1.48 | 3 of 3 | 2 of 9
KSSQSVLYESRNYNSVA | WASTRES | QQYSRLPLS | 0.78 | 3 of 3 | 0 of 9
KSSQSVMYESRNKNSVA | WASTREK | DQYHRLPLS | no signal | 0 of 3 | 0 of 9
KFSQSVLYESRFKNSVA | WASTRES | QQYHRLPLF | 0.52 | 3 of 3 | 1 of 9
KSSWSVLYESRNKNSVA | WASTNES | QQYHRLPVS | 4.69 | 1 of 3 | 5 of 9
KSSQSVLYESGNKNSVA | WASTRES | SQYHNLPLS | 0.42 | 3 of 3 | 5 of 9
KSSQSVLYESRNAMSVA | WASTRES | QQYHDLPLS | 1.91 | 3 of 3 | 0 of 9
MSSQSVLYESRNKNSVA | WASTRES | QWYPRLPLS | no signal | 0 of 3 | 1 of 9
KRSQSVLYESVNKNSVA | WAFTRES | QQYHRLPLS | no signal | 0 of 3 | 0 of 9
KKSQSVLYESRMKNPVA | WASTRES | QQYHRLPLS | 4.56 | 2 of 3 | 2 of 9
KMSQSVLYESRNKNSVA | WASTRES | VQYHRIPLS | 2.81 | 1 of 3 | 0 of 9
KSSQSVLYESMNKNSVA | WASTREF | QEYHRLPLS | 1.93 | 3 of 3 | 7 of 9
KSSQSRLYESRNKNSVA | WESTRES | QLYHRLPLS | 4.71 | 2 of 3 | 1 of 9
KSSQSVLYESRNKNSVA | WASGFES | QQWHRLPLS | no signal | 0 of 3 | 0 of 9
ESSQSVLYESRNTNSVA | WASTRES | QQYHRLPLS | 0.80 | 3 of 3 | 0 of 9
KSSQWVLYESRNKNSVA | WASTRES | QQYHRIPLS | 3.11 | 1 of 3 | 1 of 9
KESQSVLYESCNKNSRA | WASTRES | QQYHRLPLS | no signal | 0 of 3 | 1 of 9
KSSQSVLYESRNKNVVA | WASTRQS | QQYHRLPLS | 4.55 | 2 of 3 | 2 of 9
ISSQSVLYESRNKQSVA | WASTRES | QQYHRLPLS | 2.50 | 3 of 3 | 0 of 9
KSFQSVLYESRNKNSVA | WASTREH | QQYHRLPLT | 2.33 | 3 of 3 | 2 of 9
KSSQSVLYESNTKNSVA | WASTRES | QQFHRLPLS | 1.40 | 3 of 3 | 0 of 9
KSSQSVLYESRNKNSVA | WASTRES | QDYHVLPLS | 0.71 | 3 of 3 | 1 of 9
KSSQSVLYESRNKNSVA | WAANRES | QQYHCLPLS | no signal | 0 of 3 | 1 of 9
KSSQSVLYQSRNKNSVA | CASTRES | QQYHRLPGS | no signal | 0 of 3 | 0 of 9
KSSQSVLYESRNKVSVA | WASTREA | QEYHRLPLS | no signal | 0 of 3 | 3 of 9
KMSQSVLYESRNKNSVA | WASTRES | FQYHLLPLS | 1.06 | 3 of 3 | 0 of 9
ISSQSVLYESRNKNSVA | WASTRES | QQYHELKLS | no signal | 0 of 3 | 0 of 9
KSSQSVLYEPRNKNSCA | WASTRES | QQYHRLPLQ | 3.55 | 3 of 3 | 2 of 9
KSSQSVLYESRNKNSVA | WASTRES | QTYHRCPLS | no signal | 0 of 3 | 1 of 9
KTSQSVLYESRNWNPVA | WASTRES | QQYHRLPLS | no signal | 0 of 3 | 0 of 9
KSSQSVLYNSRNKNSVA | WAGTRES | QQEHRLPLS | 4.00 | 1 of 3 | 2 of 9
KSSQSVEYELRNKNSVA | WASTRES | HQYHRLPLS | 1.70 | 3 of 3 | 0 of 9
KSSQSCLYESRNKNSFA | WASTREF | QQYHRLPLS | no signal | 0 of 3 | 0 of 9

Repeated from above, the 4 best binders with a signal in all replicates:

CDR-L1,CDR-L2,CDR-L3,mean log10 Kd (nM),seen in,control signals
KSSQSVLYESNNKNSVA,WASIRES,QQYHRDPLS,0.31,3 of 3,2 of 9
KSSQSVLYESGNKNSVA,WASTRES,SQYHNLPLS,0.42,3 of 3,5 of 9
KFSQSVLYESRFKNSVA,WASTRES,QQYHRLPLF,0.52,3 of 3,1 of 9
KSSQSVLYESRNKNSVA,WASTRES,QDYHVLPLS,0.71,3 of 3,1 of 9

Background: pairings of library AAYL50 with three empty control strains gave a value in 18% of cases (median 4.19, 5th percentile 2.99). Values in that range, when seen in few replicates, are hard to tell from nonspecific mating. The control count says in how many pairings with the empty strains this scFv gave a signal.

Source: Engelhart et al. 2022 (doi:10.1038/s41597-022-01779-4), MIT Lincoln Laboratory and A-Alpha Bio; data file from the FLAb repository.